Assay results from patent US4735943A, “Eburnamonine oxime derivatives, salts thereof, and pharmaceutical agents containing the same” (Sanwa Kagaku Kenkyusho Co., Ltd., priority 1984, dated 1988).

Key:
[1] = test system: d,d-mice; assay: Cerebral Function Protection (recovery after rod dropped on vertex); assay type: in vivo, male; details: 10 mg/kg oral, 30 min before, negative values given as "not effective"
Protocol: (Cerebral Function Protection) To each of male d,d-mice (16-24 g, 6 to 24 animals/group), each of testing compounds was orally administered in an amount of 10 mg/kg. After 30 minutes from the administration, a cylindrical rod made of bakelite (diameter: 1 cm, weight: 36 g) was free dropped with a level height of 40 cm on a vertex of the mouse to hypnotize the same, in accordance with a method disclosed by […] et al ["Tyaku-no-Ayumi (The Progress in Medicines)", 104 (4), 253, 1978]. Observations were continued until a recovering reflex from the lethargy and a spontaneous motion appear to determine a reduction ratio of time period on such behavior appearances.

[2] = in vivo; details: mouse, male mice, oral, mortality after 72 hours

SMILES: CCOC(=O)C1=C[C@]2(CC)CCCN3CCc4c(n1c1ccccc41)[C@@H]32 [vinpocetine, reference compound]
- Reduction ratio, time to appear spontaneous motion [1]: 40.4%
- Reduction ratio, time to recover sit-up reflex [1]: 39.5%
- LD50 at 72 h [2]: 796 mg/kg
